Results on 1 compound are retold here after ChEMBL document CHEMBL3286195, “Discovery of (10R)-7-amino-12-fluoro-2,10,16-trimethyl-15-oxo-10,15,16,17-tetrahydro-2H-8,4-(metheno)pyrazolo[4,3-h][2,5,11]-benzoxadiazacyclotetradecine-3-carbonitrile (PF-06463922), a macrocyclic inhibitor of anaplastic lymphoma kinase (ALK) and c-ros oncogene 1 (ROS1) with preclinical brain …” (J Med Chem, 2014).

By UniProt entry, the sequences of proteins in these tests, tags left out.
UniProt Q16620, whole entry: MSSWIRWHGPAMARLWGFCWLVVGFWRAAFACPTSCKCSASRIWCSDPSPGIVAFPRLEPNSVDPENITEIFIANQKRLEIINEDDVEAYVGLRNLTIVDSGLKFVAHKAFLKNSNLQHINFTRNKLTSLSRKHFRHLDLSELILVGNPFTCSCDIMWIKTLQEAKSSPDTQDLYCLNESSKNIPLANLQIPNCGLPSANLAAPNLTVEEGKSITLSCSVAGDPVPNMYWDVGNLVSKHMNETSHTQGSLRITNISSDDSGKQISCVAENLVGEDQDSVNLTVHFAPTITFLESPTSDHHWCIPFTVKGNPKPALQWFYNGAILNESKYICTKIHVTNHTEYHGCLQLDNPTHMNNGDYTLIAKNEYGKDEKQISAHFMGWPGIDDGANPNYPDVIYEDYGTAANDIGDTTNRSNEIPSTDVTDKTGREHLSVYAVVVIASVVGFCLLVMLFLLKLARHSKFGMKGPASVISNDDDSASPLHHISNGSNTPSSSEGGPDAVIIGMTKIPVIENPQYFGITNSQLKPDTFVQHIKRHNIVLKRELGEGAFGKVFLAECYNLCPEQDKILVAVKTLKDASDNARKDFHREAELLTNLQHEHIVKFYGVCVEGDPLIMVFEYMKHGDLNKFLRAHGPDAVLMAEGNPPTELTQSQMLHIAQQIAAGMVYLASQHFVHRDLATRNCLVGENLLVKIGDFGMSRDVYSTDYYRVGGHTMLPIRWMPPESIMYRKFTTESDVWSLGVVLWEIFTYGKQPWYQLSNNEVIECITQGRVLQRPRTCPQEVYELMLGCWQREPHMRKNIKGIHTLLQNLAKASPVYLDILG

Each structure is given as a SMILES string.

The assay addresses BDNF/NT-3 growth factors receptor (Homo sapiens, UniProt Q16620).

Regarding `C[C@H]1Oc2cc(cnc2N)-c2c(nn(C)c2C#N)CN(C)C(=O)c2ccc(F)cc21` [LORLATINIB], the Ki (commonly a measure of affinity in units of concentration, obtained from inhibition or displacement) turned out to be 23 nM.
